# In ChEMBL document CHEMBL5543100 (Eur J Med Chem, 2024):
# What was measured:
# [1] = in vivo; details: Balb/c, mouse, po, 40 mg/kg
# [2] = in vivo; details: Balb/c, mouse, po, 20 mg/kg
Structure (SMILES),bioavailability at 24 h [1] [%],bioavailability at 24 h [2] [%]
Cc1ccc(Nc2nc(NCCO)c3ccccc3n2)cc1,37.5,
CCCNc1ccc2ncc(-c3ccc4[nH]ncc4c3)n2n1,,12.5
